Laboratory results from ChEMBL document CHEMBL2203208, “Synthesis and structure-activity relationships of dual PI3K/mTOR inhibitors based on a 4-amino-6-methyl-1,3,5-triazine sulfonamide scaffold” (Bioorg Med Chem Lett, 2012).

Key:
[1] = test system: LLC-PK1; assay: Efflux ratio of permeability across pig LLC-PK1 cells expressing rodent MDR1
[2] = test system: LLC-PK1; assay: Efflux ratio of permeability across pig LLC-PK1 cells expressing human MDR1

**Q.** Which results are given for `Cc1nc(N)nc(-c2cc(Cl)cnc2Nc2cnc(Cl)c(NS(=O)(=O)N(C)C)c2)n1`?
**A.** Ratio [1]: 2; Ratio [2]: 1.4
